According to patent US20140356349A1, “BIOMARKERS OF RESISTANCE TO HER2 INHIBITORS” (Seoul National University R&DB Foundation, priority 2013, published 2014):

Assays:
[1] = system: BT474 HR clones (HR-4, HR-8, HR-14, HR-15, HR-16, HR-17, HR-22); test: MTT assay using Herceptin-resistant (HR) clones; format: cell-based, human; details: 20 μg/ml Herceptin, 48 hours, control PBS; FIG. 2
Protocol: A MTT assay was performed using HR clones (HR-4, HR-8, HR-14, HR-15, HR-16, HR-17, HR-22) established in Example 1.
5×10^3 cells were seeded into a 96-well plate. After 24 hours, cells were treated with 20 μg/ml of Herceptin. After 48 hours, cells were allowed to react with a MTT solution for 3 hours. Formed formazan crystals were dissolved with DMSO (Sigma) and O.D value was measured by using ELISA. For a control, cells treated with the same amount of PBS solution were used.

[2] = system: BT474 HR clone cells (HR-8); test: 3D-growth assay in 0.4% agarose cell layer; format: cell-based, human; details: HR-8, 20 μg/ml Herceptin re-treated every 72 hours, observed day 1-29, unlike BT474 wild type; FIG. 3 upper panel
Source text: Effects of herceptin on proliferation of HR clones harvested from BALB/C nude immunodeficient mice (CAnN.Cg-Foxn1nu/CrljOri, Orient) transplanted with HER2 protein-positive human breast cancer cell BT474 in Example 1 were examined by performing a 3D-growth assay.
A bottom layer of 0.8% low melting point agarose(Sigma) was made into a 6-well plate, and when the bottom layer became solid, 3×10^4 cells of BT474 wild type (wt) or HR clone cells (HR-8) were admixed to 0.4% agarose to make a cell suspension layer (0.4% agarose cell layer). 20 μg/ml of Herceptin was treated to the cell suspension layer and cultured. The same concentration of Herceptin was additionally treated every 72 hours. The time of cell seeding into the 6-well plate was set to day 0, and on 1st, 8th, 15th, 22nd, and 29th day, cells were observed by using an optical microscope at a magnification of 100×.

[3] = system: BT474 HR clone cells (HR-8); test: 3D culture in media:Matrigel 3:1; format: cell-based, human; details: HR-8 vs BT474 wild type, 20 μg/ml Herceptin re-treated every 72 hours; FIG. 3 lower panel
Protocol: In addition, 5×10^5 cells of BT474 wild type or HR clone cells (HR-8) were cultured in a 6-well plate in a three-dimensional environment made up of media:Matrigel (BD Biosciences)=3:1 and resistance of HR clone to Herceptin was examined. 20 μg/ml of Herceptin was treated to the 6-well plate and cultured.

[4] = system: metastatic breast cancer having tumors that overexpress HER2; details: patients with metastatic breast cancer overexpressing HER2; cited from earlier work

Substance: trastuzumab [Herceptin]
- resistance of HR clones to Herceptin (MTT, O.D.) [1]: HR clones showed resistance to Herceptin
- changes in cell viability caused by Herceptin treatment [2]: changes in cell viability caused by Herceptin treatment were not observed
- resistance of HR clone to Herceptin in Matrigel 3D culture [3]: BT474 herceptin resistance cells were found out
- overall response rate [4]: below 35%
